Results as given in PMC11245519, “Ubiquitous purine sensor modulates diverse signal transduction pathways in bacteria” (Nature Communications, 2024).

Tests used:
R10 (WP_110129388-LBD) = assay type: binding, Coraliomargarita sinensis; conditions: change in Tm, threshold 2 °C; cells left empty in Table 3
R1 (WP_219614703-LBD) = R1 (WP_219614703-LBD) (Aeromonas salmonicida, UniProt T0PLV6); assay type: binding; conditions: change in Tm, threshold 2 °C
R6 (WP_185834821-LBD) = R6 (WP_185834821-LBD) (Vibrio cholerae, UniProt Q9KPY8); assay: Thermal shift assay of the R6 LBD; assay type: binding; conditions: change in Tm, threshold 2 °C
R13 (WP_167859577-LBD) = assay type: binding, Paenibacillus cymbidii; conditions: change in Tm, threshold 2 °C; 2 mM ligand (Supplementary Fig. 7)
R14 (WP_021170906-LBD) = R14 (WP_021170906-LBD) (Sporomusa ovata, UniProt A0A0U1L1T7); assay: Thermal shift assay of the R14 LBD; assay type: binding; conditions: change in Tm, threshold 2 °C
R5 (WP_131005693-LBD) = assay: Thermal shift assay of the R5 LBD; assay type: binding, Clostridioides difficile; conditions: change in Tm, threshold 2 °C
[1] = test system: members of the family dCache_1PU (11 soluble LBDs); assay: Thermal shift ligand screening of all dCache_1PU proteins (Biolog arrays PM3B and PM5); assay type: binding

What does the source list for `Cn1c(=O)c2c(ncn2C)n(C)c1=O` [Caffeine, reference compound]?
Binding in thermal shift assay, R10 (Supplementary Table 3) (R10 (WP_110129388-LBD)): Nts (No binding observed in thermal shift assays, i.e. compounds caused changes in the midpoint of protein unfolding (Tm) of less than 2 ºC); Binding in thermal shift assay, R1 (R1 (WP_219614703-LBD)): Nts^b (no binding observed in thermal shift assays, i.e., compounds caused changes in the midpoint of protein unfolding (Tm) of less than 2 °C); Binding in thermal shift assay, R6 (R6 (WP_185834821-LBD)): Nts^b (no binding observed in thermal shift assays, i.e., compounds caused changes in the midpoint of protein unfolding (Tm) of less than 2 °C); Binding in thermal shift assay, R13 (R13 (WP_167859577-LBD)): Nts^b (no binding observed in thermal shift assays, i.e., compounds caused changes in the midpoint of protein unfolding (Tm) of less than 2 °C); Binding in thermal shift assay, R14 (R14 (WP_021170906-LBD)): Nts^b (no binding observed in thermal shift assays, i.e., compounds caused changes in the midpoint of protein unfolding (Tm) of less than 2 °C); Binding in thermal shift assay, R5 (R5 (WP_131005693-LBD)): Nts^b (no binding observed in thermal shift assays, i.e., compounds caused changes in the midpoint of protein unfolding (Tm) of less than 2 °C)

How did the “Shift in the thermal shift assays” value [1] turn out when `CC(C)[C@H](N)C(=O)O` [L-Val] was run?
Its value is “did not produce any significant shift”.
